Results: US11918645B2, “Vaccines against hepatitis B virus” (priority 2012, dated 2024)

Amino acid sequences for entries named in this document (tags omitted). A change or cut given only in a name is not applied to a line headed by its entry. Residues count along the entry.
UniProt P01903, 26-216: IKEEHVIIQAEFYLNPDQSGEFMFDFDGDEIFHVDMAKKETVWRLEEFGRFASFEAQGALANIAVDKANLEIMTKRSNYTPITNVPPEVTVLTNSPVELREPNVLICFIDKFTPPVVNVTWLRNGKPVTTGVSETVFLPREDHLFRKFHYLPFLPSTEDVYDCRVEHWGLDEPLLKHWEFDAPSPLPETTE
UniProt P01911, 30-227 W38E/Q39Y/P40S/K41T/R42S/Y61H/S66N/Q99D/A100E/Q125H/L162R/A169T/M171V/Q178H: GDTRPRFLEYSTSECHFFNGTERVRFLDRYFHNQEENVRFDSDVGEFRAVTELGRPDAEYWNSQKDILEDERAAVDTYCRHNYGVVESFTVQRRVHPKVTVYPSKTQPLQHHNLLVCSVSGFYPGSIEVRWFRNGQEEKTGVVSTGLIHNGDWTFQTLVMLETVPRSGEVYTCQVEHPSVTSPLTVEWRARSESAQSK

Columns and labels:
Test in all cases: ProImmune REVEAL MHC class II binding assay of long peptides
Conditions in all cases: percentage of the signal of the positive control peptide; positive binding score >=15%
[1] = tested on: HLA-DR11 (α1*01:01;β1*11:01); parameters: species or system human
Text: (§1) The highly frequent HLA class II alleles HLA-DR1 (α1*01:01;β1*01:01), HLA-DR15 (α1*01:01;β1*15:01), HLA-DR3 (α1*01:01;β1*03:01), HLA-DR4 (α1*01:01;β1*04:01), HLA-DR11 (α1*01:01;β1*11:01), HLA-DR13 (α1*01:01;β1*13:01), and HLA-DR7 (α1*01:01;β1*07:01) were selected. Each peptide was given a score relative to the positive control peptide, which is a known T-cell epitope. The score of the test peptide is reported quantitatively as a percentage of the signal generated by the positive control peptide, and the peptide is indicated as having a putative pass or fail result. Good binders are considered to be those peptides with scores >=15% of the positive control as defined by Proimmune.

[2] = tested on: HLA-DP4 (α1*01:03;β1*04:01); parameters: species or system human
[3] = biological target: T1, HLA-DR13 (α1*01:01;β1*13:01) (Homo sapiens, UniProt P01903+P01911, A100E/A169T/K41T/L162R/M171V/P40S/Q125H/Q178H/Q39Y/Q99D/R42S/S66N/W38E/Y61H)
T1 construct: purchased ProImmune
Text: as §1

Substance: NP113: unconjugated HBV long peptide, polymerase region 96-130 of virtual HBV proteome (VGPLTVNEKRRLKLIMPARFYPNVTKYLPLDKGIK; HBV CONSENSUS SEQUENCE)
- binding score, HLA-DR11 (α1*01:01;β1*11:01) [1]: 52.86%

Substance: NP151: unconjugated HBV long peptide, polymerase region 134-168 (PEHVVNHYFQTRHYLHTLWKAGILYKRETTRSASF; HBV CONSENSUS SEQUENCE)
- binding score, HLA-DR11 (α1*01:01;β1*11:01) [1]: 49.16%

Substance: NP277(K): unconjugated HBV long peptide, polymerase 260-293 + KKK (RVSWPKFAVPNLQSLTNLLSSNLSWLSLDVSAAFYHKKK; HBV CONSENSUS SEQUENCE)
- binding score, HLA-DP4 (α1*01:03;β1*04:01) [2]: 36.19%

Substance: NP376: unconjugated HBV long peptide, polymerase 359-398 (C to S substitution at 393) (KLHLYSHPIILGFRKIPMGVGLSPFLLAQFTSAISSVVRR; HBV CONSENSUS SEQUENCE)
- binding score, HLA-DP4 (α1*01:03;β1*04:01) [2]: 53.66%
- binding score, HLA-DR11 (α1*01:01;β1*11:01) [1]: 31.38%

Substance: NP877: unconjugated HBV long peptide, core 860-890
- binding score, HLA-DR13 (α1*01:01;β1*13:01) [3]: 16.34%
